From patent US12533353B2, “Methods of treatment of cancer comprising CDC7 inhibitors” (CARNA BIOSCIENCES, INC., priority 2018, dated 2026) come the findings set out here.

For one assay, the system named is MOLM-13 cells. The assay is described as follows: Co-treatment combination screen, synergy score, ATPlite. The format is cell-based, human. As to conditions: simultaneous combination treatment, 72 hours. As to the method:
(§1) The combination screen was performed using the co-treatment dosing schedule for SRA141 and the partner compound. Both enhancee (SRA141) and enhancer (partner compound) were added at time zero (0 h). Cells were exposed to SRA141 and the enhancer for the entire 72-hour treatment time. All data points were collected via automated processes and were subject to quality control and analyzed using proprietary software.
(§2) The Growth Inhibition (GI) was utilized as a measure of cell growth. GI percentages are calculated by applying the following test and equation: […]
(§3) This formula is derived from the Growth Inhibition calculation used in the National Cancer Institute's NCI-60 high throughput screen. […] These GI calculations were used in all single agent and combination data analysis for the combination screen.
(§4) To measure combination effects in excess of Loewe additivity, a scalar measure was used to characterize the strength of synergistic interaction termed the Synergy Score. The Synergy Score is calculated as: Synergy Score=log fX log fYΣ max(0,Idata)(Idata−ILoewe)
(§5) The fractional inhibition for each component agent and combination point in the matrix is calculated relative to the median of all vehicle-treated control wells. […]
(In general: ATP-based viability assays read luminescence as a measure of living cells.)

The next assay relates to COLO-205 cells. The description is as above. It is filed as cell-based, human. As to conditions: simultaneous combination treatment, 72 hours. Here is the method: as §1, §2, §3, §4, §5

Regarding `CC1=C(/C=C/C(C)=C/C=C/C(C)=C/C(=O)O)C(C)(C)CCC1` [Tretinoin], the “synergy with SRA141” value in the assay on MOLM-13 cells is listed as “strong synergies”.
Turning to `CN(Cc1cnc2nc(N)nc(N)c2n1)c1ccc(C(=O)N[C@@H](CCC(=O)O)C(=O)O)cc1` [methotrexate], the “synergy with SRA141” value in the assay on COLO-205 cells is reported as “Strong synergies”.
